Experimental data published in ChEMBL document CHEMBL5226323, “Targeting Nuclear Receptors in Neurodegeneration and Neuroinflammation” (J Med Chem, 2021).

Target: T1, Retinoic acid receptor RXR-gamma (Homo sapiens, UniProt P48443)
T1 sequence (P48443 whole entry): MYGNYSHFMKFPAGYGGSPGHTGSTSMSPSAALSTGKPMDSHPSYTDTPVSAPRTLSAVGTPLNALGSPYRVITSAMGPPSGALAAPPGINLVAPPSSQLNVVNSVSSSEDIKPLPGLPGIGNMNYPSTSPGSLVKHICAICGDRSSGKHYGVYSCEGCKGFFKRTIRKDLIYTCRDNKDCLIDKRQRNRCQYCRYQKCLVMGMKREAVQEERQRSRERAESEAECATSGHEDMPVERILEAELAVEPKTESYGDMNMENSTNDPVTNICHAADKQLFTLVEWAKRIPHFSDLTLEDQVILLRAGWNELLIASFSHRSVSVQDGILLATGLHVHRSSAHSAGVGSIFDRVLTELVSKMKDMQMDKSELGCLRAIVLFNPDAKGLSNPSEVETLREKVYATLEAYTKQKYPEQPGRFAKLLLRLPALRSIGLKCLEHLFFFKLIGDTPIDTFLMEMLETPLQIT
Assay: Inhibition of RXRgamma (unknown origin)

EC50: 8 nM
SMILES: CC1(C)CCC(C)(C)c2cc(N(CC3CC3)c3ncc(C(=O)O)cn3)ccc21
